A word on the CC50: it is the concentration giving 50% cytotoxicity. Read a low CC50 as greater toxicity to the cells.

The subject of this series is cells without virus infection.

`CC(C)(C)c1ccc(N(C(=O)[C@H]2C[C@@H](O)CN2C#N)C(C(=O)NC2CCCCC2)c2cncc(F)c2)cc1` (single isomer, unassigned): the CC50 fell in the range of 10 to 30 µM.

The record behind these values is patent publication US20220380347A1.
